Results taken from US20180036332A1, “USE OF NADPH IN PREPARING MEDICINES FOR TREATMENT OF HEART DISEASES” (Chongqing Institute of Bench-to Bed Bioengineering …, priority 2015, published 2018).

Key:
Type in all cases: in vivo
[1] = Blood brain barrier permeability test (Evan's blue) in transient middle cerebral arterial occlusion mouse model; conditions: 7.5 mg/kg tail vein twice a day for 1 week before ischemia; ICR mice, 2 h occlusion then reperfusion; vs vehicle group, p<0.01
[2] = test system: CD11c-eYFP cells in the striatum brain area; test: Blood brain barrier related immune cell response (CD11c-eYFP dendritic cells) in permanent middle cerebral arterial embolism ischemia model; conditions: 2.5 mg/kg in the cerebral ventricle, 2 hours before ischemia; measured 24 hours after permanent brain ischemia; Tg(Itgax-Venus)1Mnz mice
[3] = Blood brain barrier injury test (Dextran-Texas leakage) in permanent middle cerebral arterial occlusion ischemia mouse model; conditions: 2.5 mg/kg in the cerebral ventricle; 24 hours after permanent brain ischemia; C57BL/6 mice

Question: With “Nicotinamide adenine dinucleotide phosphate [NADPH]” as the substance, how does the “permeability of blood brain barrier (EB content in brain tissue)” value [1] read?
Answer: significantly reduces the permeability of blood brain barrier

Question: What about the “responsiveness of CD11c-eYFP cells in the striatum brain area” value [2] of the same substance?
Answer: effectively reduces the responsiveness of CD11c-eYFP cells

Question: And the “ischemia induced Dextran-Texas leakage in the cerebral cortex and striatum area” value [3]?
Answer: effectively reduced the ischemia induced Dextran-Texas leakage
